Measured values taken from ChEMBL document CHEMBL1133892, “Design and synthesis of a highly selective EP2-receptor agonist” (Bioorg Med Chem Lett, 2001).
pKi: −log10 of the molar value.

Chains of the proteins cited; added tags and fusions are not shown. Lines headed by an entry give the natural chain unless they say otherwise; changes in a name come on top.
UniProt P32240: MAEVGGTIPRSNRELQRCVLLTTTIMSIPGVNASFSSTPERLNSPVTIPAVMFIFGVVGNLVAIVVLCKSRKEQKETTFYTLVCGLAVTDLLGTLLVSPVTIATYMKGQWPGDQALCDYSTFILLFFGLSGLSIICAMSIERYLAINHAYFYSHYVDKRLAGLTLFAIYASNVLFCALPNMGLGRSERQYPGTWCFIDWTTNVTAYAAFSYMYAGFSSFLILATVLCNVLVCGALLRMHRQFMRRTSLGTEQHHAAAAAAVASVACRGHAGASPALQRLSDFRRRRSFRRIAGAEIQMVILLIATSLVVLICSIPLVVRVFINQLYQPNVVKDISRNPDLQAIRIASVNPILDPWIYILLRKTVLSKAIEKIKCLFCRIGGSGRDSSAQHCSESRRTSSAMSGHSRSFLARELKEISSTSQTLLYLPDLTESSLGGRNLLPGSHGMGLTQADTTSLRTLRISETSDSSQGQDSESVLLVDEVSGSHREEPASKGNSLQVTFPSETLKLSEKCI

Biological target: Prostaglandin E2 receptor EP4 subtype (Mus musculus, UniProt P32240)
Test: Binding affinity towards mouse Prostanoid EP4 receptor in CHO cells.
Format: cell-based

A pKi of 8.51 was found for CCCCC[C@@H](O)/C=C/[C@H]1[C@H](O)CC(=O)[C@@H]1C/C=C\CCCC(=O)O in this work.
